Test results as given in PMC7147967 (Nature nanotechnology, 2020).

System: pErk, pMek and pRaf-1 in MCF-7/C6 cells
Test: Western blot of proliferation proteins
Type: cell-based, human
Conditions: 36 h; NPs 50 μM, Herceptin 15 μg/mL

Substance: Herceptin: anti-HER2 antibody used as positive control
- phosphorylation level of Erk, Mek and Raf-1: strongly inhibit
